Measurements as given in publication PMC5103180.

Legend:
Assay in all cases: FP
Conditions in all cases: domain or fragment
[1] = target: PF08_0141 ATS-C
[2] = target: ATS‐C fragment of PfEMP1 variant PF07_0050 (Plasmodium falciparum)
[3] = target: ATS‐C fragment of PfEMP1 variant PFL0020w (Plasmodium falciparum)

Substance: PFE1605w PHIST domain
- Kd [1]: 3.6 µM
- Kd [2]: 15 µM
- Kd [3]: 25 µM
